From patent US20060003993A1, “Benzotriazepnes as gastrin and cholecystokinin receptor ligands” (James Black Foundation Limited, priority 2001, published 2006)

By UniProt entry, the sequences of proteins in these tests, tags left out.
UniProt P30553, whole entry: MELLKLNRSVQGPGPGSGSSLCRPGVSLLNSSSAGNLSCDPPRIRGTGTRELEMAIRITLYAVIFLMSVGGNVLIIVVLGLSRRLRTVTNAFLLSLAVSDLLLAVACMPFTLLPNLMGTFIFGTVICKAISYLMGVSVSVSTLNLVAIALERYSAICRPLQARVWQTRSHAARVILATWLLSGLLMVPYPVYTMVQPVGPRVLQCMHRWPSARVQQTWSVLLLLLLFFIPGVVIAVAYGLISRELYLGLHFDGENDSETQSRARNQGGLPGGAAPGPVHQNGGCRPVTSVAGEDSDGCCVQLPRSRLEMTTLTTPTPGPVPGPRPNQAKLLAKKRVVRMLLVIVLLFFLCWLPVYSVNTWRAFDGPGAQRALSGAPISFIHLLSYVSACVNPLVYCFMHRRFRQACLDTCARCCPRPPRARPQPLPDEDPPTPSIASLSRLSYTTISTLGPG

Biological target: gastrin (CCK2) receptors (Rattus norvegicus, UniProt P30553)
Test: immature rat stomach assay, gastrin (CCK2) antagonist activity
Details: pentagastrin dose-response curves, acid secretion

pKB rat stomach | pKB rat stomach (tested form: HCl) | SMILES
8.47 ± 0.31 |  | CC(C)(C)C(=O)CN1C(=O)N(CC(=O)Nc2cccc(SCc3nn[nH]n3)c2)N=C(C2CCCCC2)c2ccccc21
 | 6.18 ± 0.29 | CC(C)(C)C(=O)CN1C(=O)N(CC(=O)Nc2ccccn2)N=C(C2CCCCC2)c2ccccc21
